# According to US12329774B2, “Method and composition for enhancing the quality and benefits of sleep” (priority 2020, dated 2025):
# Tested on: MDA, SOD, CAT, GSHPx
# Assay: Brain antioxidant status in caffeine-induced wakefulness mice
# Assay type: in vivo
# Details: caffeine followed by saline (C) or test article (20 mg theanine/kg), means and standard deviations
# Procedure: Animals were anesthetized with urethane ([…], i.p., Sigma U2500). Body temperature was maintained between 36.5 and 37° C. with homeothermic blanket. Mice were stabilized under a stereotaxic frame (World Precision Instruments, Berlin; Germany) and an incision was made on the skin along the anterior/posterior line of the skull. The left […] was removed gently with a dental drill (Marothon-3; Korea). Two Ag-AgCl sphere electrodes were placed over the left hemisphere with the reference electrode attached on the pinna. The mice received drug injections at 13:20 and 13:30 according to the predetermined treatment plan as follows: • 1) Control: Saline followed by saline; • 2) C (Positive Control): […] Brains were rapidly removed, frozen on dry ice and stored at -80° C. until analyses could be performed. Biochemical and Oxidative Stress Markers-Serum melatonin, serotonin, and dopamine were measured using ELISA kits. Brain levels of malondialdehyde (MDA) were measured by HPLC. Brain activities of superoxide dismutase (SOD), catalase (CAT) and glutathione peroxidase (GSHPx) were measured using ELISA kits for each analyte.
compound,measurement,value
"Cn1c(=O)c2c(ncn2C)n(C)c1=O [C, Caffeine, reference compound]",MDA,2.83 + 0.13a nmol/g
